One molecule from US9273364B2 (Kyoto University, priority 2010, dated 2016) can be followed below.

The subject of this series is alternative splicing of a specific gene (GFP/RFP reporter). Description: Compound screen with GFP/RFP alternative splicing reporter. In kind it is cell-based. The conditions noted are these: 5 µg/ml. The text has this: Strategy of a method for testing whether or not a compound to be tested affects an alternative splicing of a specific gene in a mammalian multicelluar organism is shown in FIG. 14.
The reporter proteins used for the method are GFP and FRP.

Turning to `Cc1nc2n(c(=O)c1CCN1CCC(c3noc4cc(F)ccc34)CC1)CCCC2` [Risperidone], the “cell count per well (c9; column head not printed in these continuation tables, meaning inferred)” value is recorded as 3677.
